What was measured:
[1] = target: T1, Abl kinase (Homo sapiens, UniProt P00519); assay: Abl kinase assay A1 (pyruvate kinase/lactate dehydrogenase coupled, spectrophotometric); settings: read-out: Abl Data (IC50); Method A1
[2] = target: T2, B-Raf(V599E) kinase (Homo sapiens, UniProt P15056, V600E); assay: B-Raf(V599E) kinase assay B1 (construct 1, MEK1 substrate, coupled spectrophotometric); settings: read-out: B-Raf Data, Method B1
[3] = target: T1, Abl kinase; assay: Abl kinase assay A2 (as A1, 1.1 nM enzyme, 2 h pre-incubation, 0.5 mM ATP); type: biochemical; settings: read-out: Abl Data (IC50), Method A2
[4] = target: T2, B-Raf(V599E) kinase; assay: B-Raf(V599E) kinase assay B2 (construct 2 at 2 nM, 1 h pre-incubation); settings: read-out: B-Raf Data; Method B2

By UniProt entry, the sequences of proteins in these tests, tags left out. Chains listed by the source or under a name are the forms on record and can include a tag or linker. Residues count along the entry.
UniProt P00519, 229-512: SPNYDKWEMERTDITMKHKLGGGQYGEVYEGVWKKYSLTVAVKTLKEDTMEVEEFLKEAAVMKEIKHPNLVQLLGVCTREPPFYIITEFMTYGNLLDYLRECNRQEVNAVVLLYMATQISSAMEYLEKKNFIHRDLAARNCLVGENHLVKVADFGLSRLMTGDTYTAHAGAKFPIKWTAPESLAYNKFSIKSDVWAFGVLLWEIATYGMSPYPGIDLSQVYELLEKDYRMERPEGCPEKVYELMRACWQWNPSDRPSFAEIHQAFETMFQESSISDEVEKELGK
UniProt P15056, 423-766 with tags or gaps V600E limits assumed: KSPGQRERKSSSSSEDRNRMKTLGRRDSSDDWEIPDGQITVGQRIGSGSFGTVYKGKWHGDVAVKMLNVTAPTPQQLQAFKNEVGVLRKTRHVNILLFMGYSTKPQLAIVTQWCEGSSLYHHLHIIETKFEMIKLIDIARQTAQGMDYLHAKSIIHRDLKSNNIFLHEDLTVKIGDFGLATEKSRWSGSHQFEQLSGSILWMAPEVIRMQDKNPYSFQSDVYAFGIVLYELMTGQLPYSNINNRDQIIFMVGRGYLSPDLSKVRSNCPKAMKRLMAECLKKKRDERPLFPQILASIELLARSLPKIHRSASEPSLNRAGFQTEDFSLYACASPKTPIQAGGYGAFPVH
UniProt P15056, 433-726 V600E limits assumed: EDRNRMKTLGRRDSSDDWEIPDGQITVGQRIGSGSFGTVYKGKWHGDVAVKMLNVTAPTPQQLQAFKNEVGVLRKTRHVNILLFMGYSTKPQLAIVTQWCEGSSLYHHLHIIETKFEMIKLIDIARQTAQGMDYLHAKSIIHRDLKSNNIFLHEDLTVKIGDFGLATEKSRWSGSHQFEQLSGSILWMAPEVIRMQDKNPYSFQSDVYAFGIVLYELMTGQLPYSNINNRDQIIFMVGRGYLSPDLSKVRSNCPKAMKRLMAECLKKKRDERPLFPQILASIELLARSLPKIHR

Compound | IC50 [2] | IC50 [3] | IC50 [4] | further results
CC(O)c1cc(-n2nc(C(C)(C)C)cc2NC(=O)Nc2cccc(Cl)c2Cl)cc2ccccc12 (stereo not drawn) | 0.0071 µM | – | – | IC50 [1]: 0.36 µM
Cn1c(=O)c(-c2cccc(NC(=O)Nc3cc(C(C)(C)C)nn3-c3ccc4[nH]c(=O)ccc4c3)c2)cc2cncnc21 | – | – | – | IC50 ([3]; tested form: HCl): 0.018 µM; IC50 ([2]; tested form: HCl): 0.0084 µM
CC(C)(C)c1cc(NC(=O)Nc2cccc(Cl)c2Cl)n(-c2ccc3c(c2)C(=NO)CC3)n1 | 0.0036 µM | – | – | –
Cn1c(=O)c(-c2cccc(NC(=O)Nc3cc(C(C)(C)C)nn3-c3ccc4c(c3)CCN4)c2)cc2cncnc21 | – | 0.031 µM | 0.029 µM | –
Cn1c(=O)c(-c2cccc(NC(=O)Nc3cc(C(C)(C)C)nn3-c3ccc4nc(N5CCNCC5)ccc4c3)c2)cc2cncnc21 | – | 0.021 µM | 0.194 µM | –

— US8163756B2 (priority 2004, dated 2012)
